Values quoted from earlier work in US20250177557A1, “METHODS OF PRODUCING MICROBUBBLE DRUG CONJUGATES, VIRAL GENE THERAPY MICROBUBBLE CONJUGATES AND TARGETED MICROBUBBLES” (priority 2022, published 2025).

Conditions: patients; cited from earlier work

## nivolumab
  Incidence of grade 3 or -4 treatment-related AEs: 21%
